{"sequences": {"note": "Chains of the proteins cited; added tags and fusions are not shown.", "UniProt P30559, whole entry": "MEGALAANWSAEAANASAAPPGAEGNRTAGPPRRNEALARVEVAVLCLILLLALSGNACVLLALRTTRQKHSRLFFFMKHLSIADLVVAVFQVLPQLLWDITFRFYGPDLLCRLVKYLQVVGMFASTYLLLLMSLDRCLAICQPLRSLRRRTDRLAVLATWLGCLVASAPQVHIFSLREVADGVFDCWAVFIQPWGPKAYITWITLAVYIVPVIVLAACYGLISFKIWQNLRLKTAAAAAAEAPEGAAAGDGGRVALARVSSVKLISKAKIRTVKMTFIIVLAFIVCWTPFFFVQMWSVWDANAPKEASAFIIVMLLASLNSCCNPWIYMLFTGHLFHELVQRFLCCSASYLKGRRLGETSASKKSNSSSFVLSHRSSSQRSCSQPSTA"}, "source": "PubChem BioAssay AID2435", "about": "(The Scripps Research Institute Molecular Screening Center, 2010)", "note": "The list shows a part of the results, in another mix than the full data. Some structures show a salt or complex split into parts, the way the source records it. The source made the active and inactive calls.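 The calls were made as follows: active = activation above the mean of all tested compounds plus 3 SD, cutoff set per screening run (cut at about 20% in these data); inactive = the rest.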"}
{"molecular_target": "Oxytocin receptor (Homo sapiens) (UniProt P30559)", "experiment": "oxytocin receptor activation by calcium flux – fluorescence, CHO-OTR cells, Fluo-8 calcium, primary screen (AID 2435);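 also: peak over basal fluorescence ratio from a 100 s FLIPR kinetic read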", "details": "Fluo-8 calcium fluorescence, at 3 µM, active compounds read high, normalized: DMSO 0%, oxytocin 100%"}
{"compound": "CP(=O)(OC12CC3CC(CC(C3)C1)C2)OC12CC3CC(CC(C3)C1)C2", "activation": "inactive: -2.33%"}
{"compound": "CCOC(=O)c1ccc(NP(C)(=O)Oc2ccc(Cl)cc2)cc1", "note": "(stereo not given)", "activation": "inactive: 0.49%"}
{"compound": "Nc1ccc2c(ccc3cccnc32)n1.O=[N+]([O-])c1cc([N+](=O)[O-])c(O)c([N+](=O)[O-])c1", "activation": "inactive: -0.22%"}
{"compound": "CP(=O)(Oc1ccccc1)N1CCOC1=O", "note": "(stereo not given)", "activation": "inactive: 1.07%"}
{"compound": "CCc1ccc(OP(C)(=O)Nc2cccnc2)cc1", "note": "(stereo not given)", "activation": "inactive: -1.33%"}
{"compound": "COc1ccccc1OP(C)(=O)Nc1c(C)n(C)n(-c2ccccc2)c1=O", "note": "(stereo not given)", "activation": "inactive: -0.56%"}
{"compound": "O=C(OCCCN1CCCC1)C(O)(c1ccccc1)C1CCCCC1", "note": "(stereo not given)", "activation": "inactive: 1.81%"}
{"compound": "CCN(CC)CC(O)COC(=O)C(O)(c1ccccc1)C1CCCCC1", "note": "(stereo not given)", "activation": "inactive: 3.05%"}
{"compound": "COc1ccc(OP(C)(=O)Nc2ccc(Br)cc2)cc1", "note": "(stereo not given)", "activation": "inactive: 4.27%"}
{"compound": "CN(C)C(=O)c1c([N+](=O)[O-])cc([N+](=O)[O-])cc1[N+](=O)[O-]", "activation": "inactive: 1.07%"}
{"compound": "CP(=O)(Nc1ccc(Cl)cc1)Oc1ccc(F)cc1", "note": "(stereo not given)", "activation": "inactive: -0.7%"}
{"compound": "CC(C)(C)c1ccc(OP(C)(=O)O)cc1", "activation": "inactive: 0.74%"}
{"compound": "COc1ccccc1OP(C)(=O)Nc1ccccc1Br", "note": "(stereo not given)", "activation": "inactive: -0.16%"}
{"compound": "CN(C)CCOC(=O)C(O)(c1ccccc1)C1CCCC1", "note": "(stereo not given)", "activation": "inactive: 1.58%"}
{"compound": "COc1ccc(OP(C)(=O)Nc2ccccn2)cc1", "note": "(stereo not given)", "activation": "inactive: 0.33%"}
{"compound": "COc1ccccc1OP(C)(=O)Nc1ccc(Br)cc1", "note": "(stereo not given)", "activation": "inactive: 0.06%"}
{"compound": "CCc1ccc(OP(C)(=O)O)cc1", "activation": "inactive: 1.93%"}
{"compound": "CP(=O)(Nc1ccccn1)Oc1ccccc1", "note": "(stereo not given)", "activation": "inactive: 0.6%"}
{"compound": "COc1ccccc1OP(C)(=O)Nc1ccc(C)cc1C", "note": "(stereo not given)", "activation": "inactive: -1.08%"}
{"compound": "O=[N+]([O-])c1cc([N+](=O)[O-])c(Nc2ccccn2)c([N+](=O)[O-])c1", "activation": "inactive: 1.36%"}
{"compound": "Cc1c(NP(C)(=O)Oc2ccc(C(C)C)cc2)c(=O)n(-c2ccccc2)n1C", "note": "(stereo not given)", "activation": "inactive: -1.04%"}
{"compound": "COc1ccc(OP(C)(=O)Nc2ccccc2Br)cc1", "note": "(stereo not given)", "activation": "inactive: -0.16%"}
{"compound": "COc1ccccc1OP(C)(=O)Nc1ccc(C)c(C)c1", "note": "(stereo not given)", "activation": "inactive: -1.08%"}
{"compound": "Cc1cc(C)cc(OP(C)(=O)Nc2cccc(C(F)(F)F)c2)c1", "note": "(stereo not given)", "activation": "inactive: -2.61%"}
{"compound": "CP(=O)(OCCOc1ccccc1)OCCOc1ccccc1", "activation": "inactive: 0.04%"}
{"compound": "CP(=O)(Nc1ccc(Cl)cc1Cl)Oc1ccccc1", "note": "(stereo not given)", "activation": "inactive: -2.14%"}
{"compound": "Cc1nc2ccc3ccccc3c2o1.O=[N+]([O-])c1cc([N+](=O)[O-])c(O)c([N+](=O)[O-])c1", "activation": "inactive: 2.01%"}
{"compound": "COc1ccc(OP(C)(=O)Nc2ccc(SC(F)(F)F)cc2)cc1", "note": "(stereo not given)", "activation": "inactive: -0.35%"}
{"compound": "CCOC(=O)c1ccc(NP(C)(=O)Oc2ccc(F)cc2)cc1", "note": "(stereo not given)", "activation": "inactive: 0.89%"}
{"compound": "CCCCCOc1ccc(NP(C)(=O)Oc2ccc(Cl)cc2Cl)cc1", "note": "(stereo not given)", "activation": "inactive: -0.73%"}
{"compound": "O=[N+]([O-])c1cc([N+](=O)[O-])c(OC2CCCCC2O)c([N+](=O)[O-])c1", "note": "(stereo not given)", "activation": "inactive: -0.01%"}
{"compound": "CP(=O)(Nc1ccccc1)Oc1ccc(F)cc1", "note": "(stereo not given)", "activation": "inactive: -0.53%"}
{"compound": "CCN(CC)CCCOC(=O)C(O)(c1ccccc1)C1CCCCC1", "note": "(stereo not given)", "activation": "inactive: 0.3%"}
{"compound": "CC(C)c1ccc(OP(C)(=O)Nc2ccc(SC(F)(F)F)cc2)cc1", "note": "(stereo not given)", "activation": "inactive: -0.78%"}
{"compound": "CP(=O)(Nc1ccccc1F)Oc1ccccc1", "note": "(stereo not given)", "activation": "inactive: -0.39%"}
{"compound": "COc1ccc2c(c1O)-c1c(O)c(OC)cc3c1[C@H](C2)[N+](C)(C)CC3.O=[N+]([O-])c1cc([N+](=O)[O-])c([O-])c([N+](=O)[O-])c1[O-]", "activation": "inactive: 0.04%"}
{"compound": "O=C(OCCN1CCN(CCOCc2ccccc2)CC1)C(O)(c1ccccc1)c1ccccc1", "activation": "inactive: -0.01%"}
{"compound": "O=C(OC1CN2CCC1CC2)c1ccc([N+](=O)[O-])cc1", "note": "(stereo not given)", "activation": "inactive: 0.57%"}
{"compound": "CCOP(C)(=S)SCC(=O)NC(C)(CC)C(=O)O", "note": "(stereo not given)", "activation": "inactive: 0.38%"}
{"compound": "CP(=O)(Nc1ccc(SC(F)(F)F)cc1)Oc1ccc(F)cc1", "note": "(stereo not given)", "activation": "inactive: -0.22%"}
{"compound": "Cc1ccccc1NP(C)(=O)Nc1ccccc1C", "activation": "inactive: 1.13%"}
{"compound": "CP(=O)(Nc1ccc2c(c1)OCCO2)Oc1ccccc1", "note": "(stereo not given)", "activation": "inactive: 1.49%"}
{"compound": "COc1ccc(NP(C)(=O)Oc2ccccc2OC)cc1", "note": "(stereo not given)", "activation": "inactive: 0.47%"}
{"compound": "CN(C)CCOC(=O)C(O)(c1ccccc1)C1CCCCC1", "note": "(stereo not given)", "activation": "inactive: 2.24%"}
{"compound": "COc1ccc(OP(C)(=O)Nc2cccc(Br)c2)cc1", "note": "(stereo not given)", "activation": "inactive: 0.77%"}
{"compound": "O=[N+]([O-])c1cc([N+](=O)[O-])c(NCC2CCS(=O)(=O)C2)c([N+](=O)[O-])c1", "note": "(stereo not given)", "activation": "inactive: 0.23%"}
{"compound": "O=[N+]([O-])c1cc([N+](=O)[O-])c(Nc2nnnn2CCO)c([N+](=O)[O-])c1", "activation": "inactive: 0.79%"}
{"compound": "CC1=C2N=C(C=C3N=C(C(C)=C4[N-][C@@](C)([C@@H]5N=C1[C@](C)(CCC(=O)NC[C@@H](C)OP(=O)([O-])O[C@H]1[C@@H](O)[C@@H](n6cnc7cc(C)c(C)cc76)O[C@@H]1CO)[C@H]5CC(N)=O)[C@@](C)(CC(N)=O)[C@@H]4CCC(N)=O)[C@@](C)(CC(N)=O)[C@@H]3CCC(N)=O)C(C)(C)[C@@H]2CCC(N)=O.[C-]#N.[Co+3]", "activation": "inactive: 0.17%"}
{"compound": "CCOC(=O)C(CC)C1=NC(C)(C)Cc2ccccc21.O=[N+]([O-])c1cc([N+](=O)[O-])c(O)c([N+](=O)[O-])c1", "note": "(stereo not given)", "activation": "inactive: -0.22%"}
{"compound": "CP(=O)(Nc1ccc(SC(F)(F)F)cc1)Oc1ccccc1", "note": "(stereo not given)", "activation": "inactive: 3.27%"}
{"compound": "CCCOc1ccc(NP(C)(=O)Oc2ccc(Cl)cc2)cc1", "note": "(stereo not given)", "activation": "inactive: -1.76%"}
{"compound": "CN1CCCCC1COC(=O)C1(O)c2ccccc2CCc2ccccc21", "note": "(stereo not given)", "activation": "inactive: 1.42%"}
{"compound": "COc1ccccc1OP(C)(=O)Nc1c(C)cccc1C", "note": "(stereo not given)", "activation": "inactive: 1.53%"}
{"compound": "O=[N+]([O-])c1cc([N+](=O)[O-])c(-n2nnc3ccccc32)c([N+](=O)[O-])c1", "activation": "inactive: 0.81%"}
{"compound": "Cc1nc2ccc3ccccc3c2s1.O=[N+]([O-])c1cc([N+](=O)[O-])c(O)c([N+](=O)[O-])c1", "activation": "inactive: -1.6%"}
